Molecular target: human recombinant HDAC1 (Homo sapiens, UniProt Q13547)
Assay: HDAC activity fluorometric assay, recombinant HDAC1
Format: biochemical
Conditions: 800 mM VPA; 1 mM TSA; 20 mM metabolites; mean ± S.D.

Amino acid sequences for entries named in this document (tags omitted).
UniProt Q13547, whole entry: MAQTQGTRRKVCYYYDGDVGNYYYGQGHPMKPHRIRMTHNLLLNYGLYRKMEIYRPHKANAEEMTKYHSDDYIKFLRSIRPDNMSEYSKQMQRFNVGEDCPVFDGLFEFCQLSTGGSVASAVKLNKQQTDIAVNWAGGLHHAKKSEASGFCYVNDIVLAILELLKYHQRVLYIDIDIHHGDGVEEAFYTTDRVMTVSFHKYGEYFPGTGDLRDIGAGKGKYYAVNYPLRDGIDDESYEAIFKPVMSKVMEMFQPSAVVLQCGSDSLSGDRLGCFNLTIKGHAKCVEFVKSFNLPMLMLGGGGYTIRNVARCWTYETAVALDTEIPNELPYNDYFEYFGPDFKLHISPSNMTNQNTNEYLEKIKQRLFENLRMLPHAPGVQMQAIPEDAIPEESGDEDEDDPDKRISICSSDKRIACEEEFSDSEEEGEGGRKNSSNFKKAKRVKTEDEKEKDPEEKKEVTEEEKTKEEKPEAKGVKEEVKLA

## CC(/C=C/C(=O)NO)=C\[C@@H](C)C(=O)c1ccc(N(C)C)cc1 [TSA, trichostatin A]
  deacetylation: 28.9±5.5%
